Test results as given in publication PMC6917698, “One-Pot Radiosynthesis and Biological Evaluation of a Caspase-3 Selective 5-[^123,125I]iodo-1,2,3-triazole derived Isatin SPECT Tracer” (Scientific Reports, 2019).

Target: T1, Recombinant human caspase-3 (Homo sapiens, UniProt P42574)
T1 sequence (P42574 29-175 limits assumed): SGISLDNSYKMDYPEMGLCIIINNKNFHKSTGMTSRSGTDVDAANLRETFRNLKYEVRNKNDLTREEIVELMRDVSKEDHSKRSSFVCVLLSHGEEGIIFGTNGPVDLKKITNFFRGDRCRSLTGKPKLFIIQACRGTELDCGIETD
T1 sequence (P42574 176-277 limits assumed): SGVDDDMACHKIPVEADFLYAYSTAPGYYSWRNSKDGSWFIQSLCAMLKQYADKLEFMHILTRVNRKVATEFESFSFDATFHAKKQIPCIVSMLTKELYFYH
Assay: Caspase enzyme inhibition assay (fluorogenic Ac-DEVD-AMC), caspase-3

With `CC(=O)N[C@@H](CC(=O)O)C(=O)N[C@@H](CCC(=O)O)C(=O)N[C@H](C(=O)N[C@H](C=O)CC(=O)O)C(C)C` [Ac-DEVD-CHO, reference compound] the Ki was 0.17 nM.
